These are literature values, as cited in patent US12281304B2, “Compositions and methods for treating and preventing muscular disorders and dystrophies, steroid side effects, and inflammation” (Children's National Medical Center, priority 2018, dated 2025).

The test system of this data set is miRNA sequences. The settings on record: known mechanism listed in Table 6; compounds will be tested; cited from earlier work.

Regarding `O=C(NCC(=O)N1CCCC1)Nc1ccc2cnccc2c1` [SGC707], the Activity result is “Protein arginine methyltransferase 3 (PRMT3) inhibitor”.
Turning to `O=C(O)c1ccc(O)c2ncccc12` [IOX1], the Activity entry is listed as “JMJD family inhibitor”.
